Assay: MALDI mass spectrometry imaging of mouse kidney sections after oral co-administration (Example 1)
Conditions: mouse kidney target tissue T1; positive control 100% and negative control 0% by definition

For `Cc1cc2c(s1)Nc1ccccc1N=C2N1CCN(C)CC1` [Olanzapine], the “F2 (%)” value was 27%.

— patent publication US9645138B2, “Method to evaluate the tissue targeting of a molecule of interest” (IMABIOTECH, priority 2013, dated 2017)
